Reference: ChEMBL document CHEMBL1145402, “Discovery of potent and muscle selective androgen receptor modulators through scaffold modifications” (J Med Chem, 2007)

Protein sequences, listed by entry. Tags and fused reporters are not part of them. Lines headed by an entry give the natural chain unless they say otherwise; changes in a name come on top.
UniProt P10275: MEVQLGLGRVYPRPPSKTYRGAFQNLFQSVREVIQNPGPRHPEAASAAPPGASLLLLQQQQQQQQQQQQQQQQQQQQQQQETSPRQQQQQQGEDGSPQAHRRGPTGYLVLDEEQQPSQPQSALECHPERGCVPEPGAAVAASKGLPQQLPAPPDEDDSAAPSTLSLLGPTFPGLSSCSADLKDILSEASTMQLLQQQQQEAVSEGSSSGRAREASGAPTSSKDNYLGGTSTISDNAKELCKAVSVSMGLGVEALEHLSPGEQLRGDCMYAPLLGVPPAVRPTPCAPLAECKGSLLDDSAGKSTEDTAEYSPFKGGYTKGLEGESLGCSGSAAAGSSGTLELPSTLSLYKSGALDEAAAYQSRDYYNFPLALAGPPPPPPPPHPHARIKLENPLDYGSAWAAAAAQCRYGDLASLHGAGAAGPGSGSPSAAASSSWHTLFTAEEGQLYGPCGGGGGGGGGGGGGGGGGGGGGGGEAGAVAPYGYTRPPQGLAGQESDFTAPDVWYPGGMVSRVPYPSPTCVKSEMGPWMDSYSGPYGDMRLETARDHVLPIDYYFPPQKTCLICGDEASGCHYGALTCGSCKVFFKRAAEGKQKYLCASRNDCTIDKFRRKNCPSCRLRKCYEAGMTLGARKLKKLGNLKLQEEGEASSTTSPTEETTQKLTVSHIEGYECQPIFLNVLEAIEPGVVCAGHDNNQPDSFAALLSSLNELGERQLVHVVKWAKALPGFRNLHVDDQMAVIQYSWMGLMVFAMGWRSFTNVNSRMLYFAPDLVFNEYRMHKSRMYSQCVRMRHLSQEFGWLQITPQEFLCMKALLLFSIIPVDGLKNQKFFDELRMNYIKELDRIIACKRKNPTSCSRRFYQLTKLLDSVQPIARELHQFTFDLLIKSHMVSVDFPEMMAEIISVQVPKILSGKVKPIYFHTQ

What follows are compounds tested against T1, Androgen receptor (Homo sapiens, UniProt P10275) (assay: Agonist activity at androgen receptor expressed in C2C12 mouse cells by luciferase reporter transactivation assay).
Assay type: functional, cell-based

First: Cc1c(N2C(=O)N3CC[C@@H](O)[C@H]3[C@@H]2C)ccc(C#N)c1Cl
Second: Cc1c(N2C(=O)N3CC[C@H](O)[C@H]3[C@H]2C)ccc(C#N)c1Cl
The EC50 of the first is 6.7-fold lower: 13 nM for the first, 87 nM for the second.

With Cc1c(N2C(=O)N3CC[C@H](O)[C@H]3[C@@H]2C)ccc(C#N)c1Cl the EC50 was 5.2 nM.

These compounds were tested against T1, Androgen receptor (assay: Displacement of [3H]DHT from androgen receptor expressed in MDA-MB-453 cells).
Assay type: cell-based

Cc1c(N2C(=O)N3CC[C@@H](O)[C@H]3[C@@H]2C)ccc(C#N)c1Cl and Cc1c(N2C(=O)N3CC[C@H](O)[C@H]3[C@H]2C)ccc(C#N)c1Cl are within 1.5-fold of each other in Ki: 2.9 nM for the first, 4 nM for the second.

Cc1c(N2C[C@@H]3[C@H](O)CC[C@@H]3C2=O)ccc(C#N)c1Cl and Cc1c(N2C(=O)N3CC[C@H](O)[C@H]3[C@@H]2C)ccc(C#N)c1Cl are within 1.5-fold of each other in Ki: 2.2 nM for the first, 1.5 nM for the second.

In the case of CC1=C(c2ccc(C#N)c(Cl)c2C)C(=O)N2CC[C@H](O)[C@@H]12, the Ki is reported as 0.5 nM.
